Assays:
[1] = molecular target: T1, human recombinant Monoacylglycerol Lipase (Homo sapiens, UniProt Q99685); assay: MAGL enzymatic assay (IC50; 7-HCA substrate added at T=0 min or T=30 min); assay type: biochemical
[2] = molecular target: T1, human recombinant Monoacylglycerol Lipase; assay: MAGL inactivation (kinact/KI from enzyme progress curves, T=0 min protocol); conditions: from plot of Kobs vs. compound concentration, geometric mean of 2-5 determinations (b: ≥6)

Chains of the proteins cited; added tags and fusions are not shown.
UniProt Q99685, whole entry: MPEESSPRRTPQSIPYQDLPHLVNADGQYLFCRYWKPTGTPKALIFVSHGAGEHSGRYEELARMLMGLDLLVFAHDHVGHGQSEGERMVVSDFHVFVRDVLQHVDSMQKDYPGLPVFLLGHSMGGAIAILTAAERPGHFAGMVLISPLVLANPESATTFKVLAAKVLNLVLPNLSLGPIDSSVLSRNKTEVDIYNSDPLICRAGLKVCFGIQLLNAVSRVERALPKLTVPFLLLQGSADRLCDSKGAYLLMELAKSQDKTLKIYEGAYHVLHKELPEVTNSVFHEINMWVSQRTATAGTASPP

| Structure (SMILES) | IC50 ([1]; MAGL (T = 0 min) IC50) [nM] | IC50 ([1]; MAGL (T = 30 min) IC50) [nM] | MAGL kinact/KI [2] |
| --- | --- | --- | --- |
| CN(C(=O)C(C)(C)C)[C@H]1COC2(CCN(C(=O)O[C@H](CO)C(F)(F)F)CC2)C1 [Example 7, (2R)-1,1,1-Trifluoro-3-hydroxypropan-2-yl (3R)-3-[(2,2-dimethylpropanoyl)(methyl)amino]-1-oxa-8-azaspiro[4.5]decane-8-carboxylate] | 37 | 3 | 19700 1/s per M |
| O=C(O[C@H](CO)C(F)(F)F)N1CCC2(CC1)CC(Oc1ccc(C(F)F)nc1)C2 [Example 19, (2R)-1,1,1-Trifluoro-3-hydroxypropan-2-yl 2-{[6-(difluoromethyl)pyridin-3-yl]oxy}-7-azaspiro[3.5]nonane-7-carboxylate] |  |  | 78900 1/s per M |
